# The list shows a part of the results, in another mix than the full data. Some tests of the compounds listed are not included; inactive here does not mean inactive elsewhere. The source made the active and inactive calls.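 Rule for the calls: active = inhibition above the average over every tested compound plus 3 SD (cut at about 40% in these data); inactive = the rest.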
# Test system: Hepatitis C virus NS3 helicase
# Test: compounds blocking NS3h DNA binding – biochemical, fluorescence polarization, ChemBridge library, primary screen (AID 687043)
# Settings: NS3h Cy5-dT15 DNA binding, at 100 µM, stronger effect = higher value
row,Structure (SMILES),inhibition
1,COc1ccc(OC)c(C=C(C#N)C#N)c1,inactive: 11.4%

# — PubChem BioAssay AID687043 (Milwaukee Institute for Drug Discovery, 2013)
